This note sets out measurements from US5889151A (priority 1989, dated 1999).

In test [1] the test system is transfected 10B H7 clone. Format: cell-based, mouse.
Test [2] relates to human Wish cells. Format: cell-based.
The test system of test [3] is mouse parental BTG cells. The class given is cell-based.

B1: Human beta IFN: human beta interferon preparation (protein, UniProt P01574 22-187, looked up)
Interferon beta: MSYNLLGFLQRSSNFQCQKLLWQLNGRLEYCLKDRMNFDIPEEIKQLQQFQKEDAALTIYEMLQNIFAIFRQDSSSTGWNETIVENLLANVYHQINHLKTVLEEKLEKEDFTRGKLMSSLHLKRYYGRILHYLKAKEYSHCAWTIVRVEILRNFYFINRLTGYLRN
Consider B1, for which, in test [1], the “Antiviral activities of interferon preparations tested on 10BH7” value was 1,6 × 10^3 units/ml and the “RATIO 10BH7/BTG” value worked out at 8. In addition, the “Antiviral activities of interferon preparations tested on WISH” value in test [2] was 2,7 × 10^6 units/ml. The “Antiviral activities of interferon preparations tested on BTG” value in test [3] amounted to 200 units/ml.
